Experimental data as given in patent US9636379B2, “Compositions and methods for treating pruritus” (Washington University, priority 2007, dated 2017).

Sequences of proteins named here, by UniProt entry; tags and fusion partners are left off.
UniProt P42866, whole entry: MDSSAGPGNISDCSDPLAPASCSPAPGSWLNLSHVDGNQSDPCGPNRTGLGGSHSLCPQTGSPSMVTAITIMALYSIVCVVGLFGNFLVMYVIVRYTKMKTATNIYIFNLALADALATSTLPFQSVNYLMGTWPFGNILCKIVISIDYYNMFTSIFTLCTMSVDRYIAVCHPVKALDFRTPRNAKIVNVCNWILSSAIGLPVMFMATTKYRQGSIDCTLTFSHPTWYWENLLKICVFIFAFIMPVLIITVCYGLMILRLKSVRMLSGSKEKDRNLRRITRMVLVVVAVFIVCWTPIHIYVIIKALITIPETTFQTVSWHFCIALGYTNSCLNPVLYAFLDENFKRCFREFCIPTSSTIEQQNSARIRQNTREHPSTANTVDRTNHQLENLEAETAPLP

Target: mu-opioid receptor (MOR) (Mus musculus, UniProt P42866)

How did the “scratching after intrathecal DAMGO” value (0.02 nmol/5 μl i.t.) turn out when `C[C@@H](NC(=O)[C@@H](N)Cc1ccc(O)cc1)C(=O)NCC(=O)N(C)[C@@H](Cc1ccccc1)C(=O)NCCO` [DAMGO] was run?
The value was “induced scratching behavior”.

And the DAMGO-induced scratching behavior (GRPR mutant mice)?
The DAMGO-induced scratching behavior was “almost abolished”.
